# Measured values reported in PubChem BioAssay AID652083 (The Scripps Research Institute Molecular Screening Center, 2013).
# The other results are listed elsewhere or left out. Calls of active or inactive are those of the source.
# Test system: BZD (central)
# Assay: PubChem AID 652083
# Conditions: CEREP radioligand binding panel, % inhibition at 10 uM, stronger effect = higher value
structure (smiles),measurement,value
COC(=O)c1cc(Br)cnc1N1CCC(NC2CCCCC2)C(O)C1 (stereo unspecified),inhibition of specific binding,inactive: -18%
